What all share (assay type): cell-based, human
Test [1] relates to U2OS + SSTR2A cells. Particulars: label = 24 h pre-treatment (152 µg/mL hydroxyurea, 4 ng/mL gemcitabine, 200 ng/mL triapine), 4 h recovery, [^177Lu]Lu-DOTA-TATE 24 h, 25 nM, MTT at day 7, mean ± SD, N = 3. As for the experimental part:
Excess MTT was then removed. Formazan crystals were dissolved with 50 μL/well in dimethylsulfoxide (DMSO) for 2 min at room temperature (RT) under gentle agitation. Well absorbance at 570 nm was then measured on a UV/V is absorbance microplate reader (SPECTROstar® Nano, BMG LABTECH). Metabolic viability, following signal-to-background correction, was calculated as the percentage signal in treated cells normalised to the signal in untreated cells.

For the next test, the system named is BON1 + SSTR2A cells. Put plainly: Cell cycle post chemotherapeutics (EdU/DAPI flow cytometry). Conditions: asynchronous BON1 + SSTR2A cultures; 24 h treatment (152 µg/mL hydroxyurea, 2 ng/mL gemcitabine, 100 ng/mL triapine), 4 h after removal; untreated 35.8 ± 2.6%; mean ± SD, N = 3. On the procedure:
(§1) All studies were performed in cells at 4 h after removal of each chemotherapeutics treatment.
(§2) For cell cycle studies, cells were pulse-labelled with medium containing 20 µM 5-ethynyl-2’-deoxyuridine (EdU, Click-iT™ Plus EdU Flow Cytometry Assay Kit, Invitrogen) for 1 h prior to harvesting by Accutase detachment. Cells were then fixed, permeabilized, and blocked before 30-minute incubation at RT following manufacturer instructions and labelled with Alexa Fluor™-488/-647-labelled-picolyl azide. Cells were further washed, resuspended in 4′,6-diamidino-2-phenylindole (DAPI; 1:1,000 dilution in PBS) and stained for 20 min prior to dilution in blocking solution and analysis (BD LSRFortessa™). Results were analyzed using FlowJo (v10.9.0).

Test [2] deals with U2OS + SSTR2A cells. The test is described as above. Conditions: asynchronous U2OS + SSTR2A cultures; 24 h treatment (152 µg/mL hydroxyurea, 4 ng/mL gemcitabine, 200 ng/mL triapine), 4 h after removal; untreated 45.5 ± 3.3%; mean ± SD, N = 3. As for the experimental part: as §1, §2
Test [3] relates to SSTR2A expression of BON1 + SSTR2A cells. Nature of the test: SSTR2A expression post chemotherapeutics (flow cytometry). Particulars: 24 h chemotherapeutic (152 µg/mL hydroxyurea, 2 ng/mL gemcitabine, 100 ng/mL triapine), 4 h after treatment, mean ± SD, N = 3–9. On the procedure:
as §1
(§3) For SSTR2A expression studies, 1.5 × 10^5 U2OS/U2OS + SSTR2A and BON1/BON1 + SSTR2A cells were seeded in 6-well plates and placed in the incubator to adhere overnight. Cells were treated with chemotherapeutics for 24 h at the same concentrations stated above. Determination of SSTR2A expression levels by flow cytometry post chemotherapeutics was performed as described in the Supplementary methods.
(§4) For flow cytometry analysis of SSTR2A expression, cells (1x10^6) were detached from culture vessels and pelleted by centrifugation (1,000 g for 2 min) and the media aspirated. Cells were then resuspended in 4% v/v PFA and fixed at RT for 10 min. After, cells were pelleted by centrifugation and excess PFA aspirated prior to resuspension in 0.5% v/v Triton™ X-100 (Thermo Scientific™) and permeabilised at RT for 10 minutes. Cells were once again pelleted by centrifugation and excess Triton™ X-100 removed prior to resuspension in blocking solution (PBS containing 2.5 mM EDTA and 2% w/v BSA). Cells were stained with UMB1 primary antibody (1:400 dilution, Abcam) for 30 minutes at RT before pelleting cells and aspirating excess antibody. Cells were washed once with blocking solution prior to repeating pelleting and aspiration. Cells were then resuspended and incubated with Alexa Fluor™ 647 secondary antibody (1:1000 dilution, Abcam) for 30 minutes at RT, protected from light. After incubation, excess antibody was removed prior to a final wash with blocking solution. Cells analysed using the BD LSRFortessa™. Results are expressed as the median fluorescence intensity (MFI) of the overall acquired signal, analysed using FlowJo version 10.9.0 (BD, USA).
(Flow cytometry measures light scatter and fluorescence of single cells or particles in a stream.)

The subject of test [4] is SSTR2A expression of U2OS + SSTR2A cells. Described as above. Conditions: 24 h chemotherapeutic (152 µg/mL hydroxyurea, 4 ng/mL gemcitabine, 200 ng/mL triapine), 4 h after treatment, mean ± SD, N = 3–9. On the procedure:
as §1, §3, §4

Consider `Nc1ccn([C@@H]2O[C@H](CO)[C@@H](O)C2(F)F)c(=O)n1` [Gemcitabine, gemcitabine], for which, in the test on U2OS + SSTR2A cells [1], the “percentage viability after [^177Lu]Lu-DOTA-TATE in chemotherapeutic pre-treated cells” value (shortened to “percentage viability”) turned out to be 24.5 ± 5.4%. The S-phase sub-population in the test on BON1 + SSTR2A cells is recorded as 82.2 ± 8.2%; in the test on U2OS + SSTR2A cells [2], 85.9 ± 1.9%. The “mean increase in SSTR2A expression from baseline expression levels” value (“mean increase in SSTR2A expression” below) is listed as 39.6 ± 45.4% in test [3] and 20.8 ± 29.7% in test [4].

For the molecule `NC(=O)NO` [Hydroxyurea, hydroxyurea], the “percentage viability” value in the test on U2OS + SSTR2A cells [1] turned out to be 18.8 ± 5.2%. In addition, the S-phase sub-population was 86.4 ± 2.2% with BON1 + SSTR2A cells and 84.8 ± 2.5% in the test with U2OS + SSTR2A cells [2]. Also, the “mean increase in SSTR2A expression” value in test [3] was determined as 48.8 ± 12.0%; in test [4], 46.9 ± 28.2%.

In the case of `NC(=S)N/N=C/c1ncccc1N` [Triapine, triapine], the “percentage viability” value in the test with U2OS + SSTR2A cells [1] is given as 23.6 ± 7.3%. Further, the S-phase sub-population is recorded as 88.0 ± 3.6% in the test on BON1 + SSTR2A cells and 86.6 ± 2.2% with U2OS + SSTR2A cells [2]. For the same molecule, the “mean increase in SSTR2A expression” value came to 119.3 ± 40.9% in test [3] and 36.2 ± 32.4% in test [4].

Source of the values: paper PMC11322472, “Enhancing [^177Lu]Lu-DOTA-TATE therapeutic efficacy in vitro by combining it with metronomic chemotherapeutics” (EJNMMI Research, 2024).
